Screening data: PubChem BioAssay, ICCB-Longwood Screening Facility, Harvard Medical School
HCMV NEC inh: disrupts HCMV UL50-UL53 complex binding. 190,000 compounds, 0.15% hits. inhibition, % (concentration not given with the values). HTRF UL50-UL53 interaction, normalized percent inhibition; in the data active means inhibition above about 27%, passing the limit was not always enough
GIV Gai3 FP: blocks GIV peptide binding to rat Galpha-i3. P08753. Galpha-i3/FITC-GIV peptide fluorescence polarization, 90 min; hits give low values; scaled: aluminum fluoride 0%, vehicle 100%. percent of control (FP), % (test concentration not listed). hit rate 0.42% among 210,000;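 active means replicate mean at 85% of control or lower, very high polarization wells dropped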;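 further: wells of about 15 µL received 100 nL stock; the first replicate is given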
GIV Gai FP conf: GIV-Galpha-i3 inhibition, FP confirmation. shares compounds with GIV Gai3 FP. FITC-GIV peptide binding to Galphai3, fluorescence polarization; hits give low values. fluorescence polarization, mP at 100 µM. 580 compounds, 38% hits. AID 1259350;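 active means inhibition score of 15 or more, meaning 100 minus mean polarization as percent of control over three replicates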;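 further: lower mP means peptide displaced from Galphai3 so more inhibition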
GIV Gai AS conf: GIV-Galpha-i3 inhibition, AlphaScreen confirmation. 580 compounds, 39% hits. shares compounds with GIV Gai3 FP. AlphaScreen Galphai3-GIV binding, purified proteins, 90 min; hits give low values. AlphaScreen counts at 100 µM. AID 1259351;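 active means inhibition score at or above a set limit, where the score is 100 minus the three-replicate mean percent of control signal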
Numbers without * were called inactive; · = no result. Only some compounds are listed: those with a hit (about 0.43% of all), similar ones and a draw of the others.

No. | SMILES | HCMV NEC inh | GIV Gai3 FP | GIV Gai FP conf | GIV Gai AS conf
1 | CCOc1ccc(C(=O)NCCn2c(-c3ccncc3)nc3ccccc32)cc1 | -38.5 | 103.6 | · | ·
2 | O=C(NCCc1ccccc1)c1ccccc1O | -13.6 | · | · | ·
3 | O=S(=O)(Nc1ccc(O)c(Sc2ncn[nH]2)c1)c1ccccc1 | · | 103.4 | · | ·
4 | O=C1C(Sc2ncn[nH]2)=C/C(=N/S(=O)(=O)c2ccc(Cl)cc2)c2ccccc21 | -8.3 | 8.2* | 17.5* | 4487*
5 | CN(CCCNC(=O)C1CCCN(c2nc3cccnc3s2)C1)C1CCCCC1 (stereo not given) | -18.0 | 106.7 | · | ·
6 | COc1ccc(S(N)(=O)=O)cc1C(=O)NCC(c1cccs1)N(C)C (stereo not given) | 11.1 | · | · | ·
7 | COc1ccc(-c2nc(SCC(=O)Nc3ccc4c(c3)OCO4)c(-c3ccc(F)cc3)[nH]2)cc1OC | -9.6 | 100.5 | · | ·
8 | O=C(O)c1cc(NS(=O)(=O)c2ccc3c(c2)CCCC3)cnc1N1CCC(N2CCCCC2)CC1 | -23.5 | 80.3* | 49.8* | 27614
9 | O=C(O)c1cc(NS(=O)(=O)c2ccc3c(c2)CCCC3)ccc1N1CCN(C2CCCCC2)CC1 | -11.9 | 107.3 | · | ·
10 | CC(C)(C)c1ccc(S(=O)(=O)Nc2cnc(N3CCNCC3)c(C(=O)N3CCCC3)c2)cc1 | · | 105.5 | · | ·
11 | O=C(O)c1cc(NS(=O)(=O)c2ccc(F)cc2)cnc1N1CCCC1 | -56.9 | 77.1* | 46.9* | 18634*
12 | COc1ccc(N2CC(NC(=O)C(c3ccccc3)c3ccccc3)CC2=O)cc1 (stereo not given) | · | 97.7 | · | ·
13 | Cc1nc(C(F)(F)F)ccc1-c1nnc(SC(=O)c2ccc(Cl)cc2)o1 | · | 109.5 | · | ·
14 | Cc1cc(-c2c(C)sc(C)c2S(=O)(=O)Nc2ccc(C(C)C)cc2)n[nH]1 | · | 98.0 | · | ·
15 | CN(N)c1cc(=O)n(C)c(=O)[nH]1 | -48.8 | 63.6* | 49* | 32708
16 | Cn1c(=O)cc(N2CCCCC2)[nH]c1=O | -15.6 | 107.2 | · | ·
17 | COc1ccccc1/C=C1\C(=O)N(c2ccc(C)cc2)C2=C1C(c1ccccc1)N(c1ccc(C)cc1)C2=O (stereo not given) | · | 100.3 | · | ·
18 | Cc1ccc(N2C(=O)/C(=C\c3ccc(C(C)C)cc3)C3=C2C(=O)N(c2ccc(C)cc2)C3c2ccccc2)cc1 (stereo not given) | · | 85.3* | 69.5 | 46540
19 | O=C(CSc1nnnn1Cc1ccccc1)NCCc1ccccc1 | -1.9 | 98.9 | · | ·
20 | Cc1ccc(NC(=S)Nc2cccc(C(F)(F)F)c2)cc1NS(C)(=O)=O | 74.5* | 68.9* | 50* | 38510
21 | COC(CNC(=S)Nc1cccc(C(F)(F)F)c1)OC | -1.6 | 103.6 | · | ·
22 | Cc1ccc2nc3c(cc2c1)c(=O)oc1ccccc13 | -8.8 | 105.8 | · | ·
23 | CCCN1C(=O)NC2(O)C(=O)c3ccccc3C12O (stereo not given) | · | 76.8* | 57.2 | 47718
24 | CN1C(=O)NC2(O)C(=O)c3ccccc3C12O (stereo not given) | · | 109.8 | · | ·
25 | CCN1C(C(=O)c2ccccc2)=C(NC(=O)c2ccccc2)c2ccccc2S1(=O)=O | -4.3 | 54.7* | 20.4* | 46797
26 | CCCCCN1C(C(=O)c2ccccc2)=C(NC(=O)c2ccc(C)cc2)c2ccccc2S1(=O)=O | -7.3 | 106.2 | · | ·
27 | Cc1ccc(-c2noc(-c3cn(Cc4ccc(NS(=O)(=O)c5cc(C)ccc5C)cc4)cn3)n2)cc1 | -38.0 | 107.1 | · | ·
28 | COc1ccc(C(CNC(=O)Cc2cc(OC)c(OC)c(OC)c2)N2CCCC2)cc1 (stereo not given) | -8.8 | · | · | ·
29 | CCN(Cc1ccccc1)C(=O)c1cc2c(=O)n3ccccc3nc2n1C | -49.5 | 102.2 | · | ·
30 | CN(Cc1ccccc1)C(=O)c1cc2c(=O)n3ccccc3nc2n1C | -29.5 | 67.6* | 69.9 | 35770
31 | CC(=O)NC(C)c1nc2ccccc2n1Cc1ccccc1C (stereo not given) | -10.6 | · | · | ·
32 | CC1CN(C(=O)Cc2csc3nc(-c4ccc(Cl)cc4)cn23)CC(C)O1 (stereo not given) | -28.4 | 106.6 | · | ·
33 | CC1=NN(c2cccc(C(F)(F)F)c2)C(=O)C1 | -12.3 | · | · | ·
34 | CC1=NN(c2cc(S(=O)(=O)O)c3cccc(S(=O)(=O)O)c3c2)C(=O)C1 | · | 59.2* | 60.2 | 2889*
35 | O=S(=O)(c1cccc2nonc12)N1CCC(Cc2ccccc2)CC1 | · | 92.0 | 62.7 | 53128
36 | O=S(=O)(c1cccc2nsnc12)N1CCC(Cc2ccccc2)CC1 | · | 105.3 | · | ·
37 | CC12CCC(=O)N1C(C(=O)OCc1nc3ccccc3c(=O)n1CC#N)CS2 (stereo not given) | -9.9 | · | · | ·
38 | Cc1cc2c3c(c(Br)cc(S(=O)(=O)O)c3n1)C(=O)c1ccccc1-2 | · | 82.6* | 25.4* | 2617*
39 | Cc1cc2c3c(c(N)cc(S(=O)(=O)O)c3n1)C(=O)c1ccccc1-2 | · | 126.5 | · | ·
40 | Cc1cccc(NC(=O)C2CCCN(c3nnc(-n4c(C)ccc4C)s3)C2)c1C (stereo not given) | -10.2 | 103.2 | · | ·
41 | Cc1ccc(C)n1-c1nnc(N2CCCC(C(=O)O)C2)s1 (stereo not given) | · | 86.7 | 58.8 | 7556*
42 | Cc1ccc(-c2c[n+](CC(=O)c3ccc(Br)cc3)c3n2CCCCC3)cc1 | · | 118.2 | · | ·
43 | Cn1cc2c3c(cccc31)CN(C(=O)NCC1CCCO1)CC2 (stereo not given) | · | 92.2 | · | ·
44 | COCCn1cc2c3c(cccc31)CN(C(=O)NCC1CCCO1)CC2 (stereo not given) | · | 81.3* | 60.2* | 20045
45 | CC(NC(=O)Nc1ccccc1Br)(C(F)(F)F)C(F)(F)F | 0.2 | · | · | ·
46 | Cc1ccc(NC(=O)CSc2nc3ccccc3c(=O)n2CCC(=O)NC2CCCCC2)cc1 | · | 101.7 | · | ·
47 | CN1c2ccccc2N(C)C1c1ccc(O)cc1 | 67.8* | 16.2* | 31.4* | 16384*
48 | CN1C(=O)c2ccccc2N(C)C1c1ccc(F)cc1 (stereo not given) | -0.3 | 100.9 | · | ·
49 | NS(=O)(=O)c1ccc(CNC(=O)CC23CC4CC(CC(Br)(C4)C2)C3)cc1 | 8.8 | · | · | ·
50 | Cc1cc(-c2ccccc2)n2nc(-c3ccc(Cl)cc3)cc2n1 | · | 50.6* | 85.2 | 33087

4 compounds from above, arranged by their value in GIV Gai FP conf, descending.
entry	Compound	GIV Gai3 FP	GIV Gai FP conf	GIV Gai AS conf
50	Cc1cc(-c2ccccc2)n2nc(-c3ccc(Cl)cc3)cc2n1	50.6*	85.2	33087
44	COCCn1cc2c3c(cccc31)CN(C(=O)NCC1CCCO1)CC2 (stereo not given)	81.3*	60.2*	20045
41	Cc1ccc(C)n1-c1nnc(N2CCCC(C(=O)O)C2)s1 (stereo not given)	86.7	58.8	7556*
47	CN1c2ccccc2N(C)C1c1ccc(O)cc1	16.2*	31.4*	16384*

Of the compounds above, these have a thiophene ring, fused or not.
No. | SMILES | HCMV NEC inh | GIV Gai3 FP | GIV Gai FP conf | GIV Gai AS conf
6 | COc1ccc(S(N)(=O)=O)cc1C(=O)NCC(c1cccs1)N(C)C (stereo not given) | 11.1 | · | · | ·
14 | Cc1cc(-c2c(C)sc(C)c2S(=O)(=O)Nc2ccc(C(C)C)cc2)n[nH]1 | · | 98.0 | · | ·

Continued:
No. | SMILES | HCMV NEC inh | GIV Gai3 FP | GIV Gai FP conf | GIV Gai AS conf
51 | Cc1cc(C(F)(F)F)n2nc(-c3ccccc3)cc2n1 | -23.1 | 115.0 | · | ·
52 | O=C(C1CCN(c2ncnc3c2oc2ccccc23)CC1)N1CCC(Cc2ccccc2)CC1 | · | 101.2 | · | ·
53 | COc1ccc(/C=C2\C=C(c3ccccc3)N(c3ccc(O)cc3)C2=O)cc1Br | · | 111.2 | · | ·
54 | COc1ccc(/C=C2\C=C(c3ccccc3)N(c3ccc(Br)cc3)C2=O)cc1Br | · | 109.8 | · | ·
55 | COC(=O)c1cc(N2C(=O)/C(=C/c3ccc(OC)c(Br)c3)C=C2c2ccccc2)ccc1Cl | · | 7.0* | 61.8 | 49090
56 | COc1ccc(N2C(=O)/C(=C/c3ccc(Cl)cc3)C=C2c2ccccc2)cc1 | · | 82.5* | 76.6 | 32406
57 | COc1ccc(/C=C2\C=C(c3ccccc3)N(c3cccc(C(C)=O)c3)C2=O)cc1Br | · | 78.2* | 72.6 | 38656
58 | COc1ccc(/C=C2\C=C(c3ccccc3)N(c3ccc(Cl)c(Cl)c3)C2=O)cc1Br | · | 119.4 | · | ·
59 | COc1ccc(/C=C2\C=C(c3ccccc3)N(c3cccnc3)C2=O)cc1Br | · | 44.3* | 66 | 45797
60 | COc1ccc(/C=C2\C=C(c3ccccc3)N(c3ccc(Br)cc3)C2=O)cc1 | · | 102.1 | · | ·
61 | Cc1ccc(S(=O)(=O)c2nnn3c2nc(NC2CCCCC2)c2sccc23)cc1 | · | 105.0 | · | ·
